The text below walks through data of US4018930A, “Substituted indolobenzazepines” (Endo Laboratories, Inc., priority 1975, dated 1977).

Assay [1] relates to mice. The experiment in a line: Ptosis (Pto.), primary rodent screen. Type of assay: in vivo. The settings on record: po, mouse; passive ptosis.
The subject of assay [2] is mice. The experiment in a line: Decreased Locomotor Activity (L.M.A.), primary rodent screen. The settings on record: po, mouse; oral dose producing score of at least -1. Type of assay: in vivo.

Structures are written as SMILES.

Regarding `C#CCN1CC[C@@H]2[C@@H](C1)c1cccc3c1N2c1ccccc1CC3` (racemic), the “Pto. ED50 (ptosis)” value in the assay on mice [1] was determined as 36 mg/kg. Also, in the assay with mice [2], the “L.M.A. ED50 (decreased locomotor activity)” value is reported as 36 mg/kg.
On to `C=CCN1CC[C@@H]2[C@@H](C1)c1cccc3c1N2c1ccccc1CC3.Cl` (racemic), for which, in the assay with mice [1], the “Pto. ED50 (ptosis)” value stood at 11 mg/kg. For the same compound, the “L.M.A. ED50 (decreased locomotor activity)” value in the assay on mice [2] is reported as 7 mg/kg.
